Amino acid sequences for entries named in this document (tags omitted). A change or cut given only in a name is not applied to a line headed by its entry.
UniProt Q13131: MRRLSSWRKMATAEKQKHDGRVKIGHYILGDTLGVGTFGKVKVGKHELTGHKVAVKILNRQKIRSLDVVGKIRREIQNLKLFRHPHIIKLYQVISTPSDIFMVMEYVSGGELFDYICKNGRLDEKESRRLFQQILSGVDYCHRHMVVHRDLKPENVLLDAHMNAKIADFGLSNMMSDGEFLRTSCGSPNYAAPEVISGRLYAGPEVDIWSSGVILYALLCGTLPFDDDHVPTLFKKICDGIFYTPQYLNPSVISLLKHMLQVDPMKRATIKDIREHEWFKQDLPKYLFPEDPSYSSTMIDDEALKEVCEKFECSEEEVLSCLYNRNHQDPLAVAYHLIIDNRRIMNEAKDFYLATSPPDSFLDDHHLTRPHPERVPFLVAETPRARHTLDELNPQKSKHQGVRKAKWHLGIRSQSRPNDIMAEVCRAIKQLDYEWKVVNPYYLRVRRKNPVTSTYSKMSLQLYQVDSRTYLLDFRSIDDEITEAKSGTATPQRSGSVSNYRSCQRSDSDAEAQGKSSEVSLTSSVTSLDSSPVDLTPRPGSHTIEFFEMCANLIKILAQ
UniProt P36894: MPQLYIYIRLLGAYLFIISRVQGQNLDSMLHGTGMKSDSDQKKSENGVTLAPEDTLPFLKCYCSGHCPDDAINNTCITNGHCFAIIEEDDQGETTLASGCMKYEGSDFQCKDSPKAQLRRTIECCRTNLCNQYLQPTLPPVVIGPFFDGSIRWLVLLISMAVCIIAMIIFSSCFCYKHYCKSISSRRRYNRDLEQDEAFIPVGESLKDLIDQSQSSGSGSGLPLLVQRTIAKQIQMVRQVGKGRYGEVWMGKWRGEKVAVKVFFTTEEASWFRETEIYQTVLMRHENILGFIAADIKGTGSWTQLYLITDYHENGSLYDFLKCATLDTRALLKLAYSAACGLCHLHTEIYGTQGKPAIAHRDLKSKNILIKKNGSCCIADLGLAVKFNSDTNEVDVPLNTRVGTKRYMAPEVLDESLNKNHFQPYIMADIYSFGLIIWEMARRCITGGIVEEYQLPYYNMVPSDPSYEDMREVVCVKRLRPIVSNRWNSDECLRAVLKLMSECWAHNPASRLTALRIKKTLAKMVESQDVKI
UniProt P37023, whole entry: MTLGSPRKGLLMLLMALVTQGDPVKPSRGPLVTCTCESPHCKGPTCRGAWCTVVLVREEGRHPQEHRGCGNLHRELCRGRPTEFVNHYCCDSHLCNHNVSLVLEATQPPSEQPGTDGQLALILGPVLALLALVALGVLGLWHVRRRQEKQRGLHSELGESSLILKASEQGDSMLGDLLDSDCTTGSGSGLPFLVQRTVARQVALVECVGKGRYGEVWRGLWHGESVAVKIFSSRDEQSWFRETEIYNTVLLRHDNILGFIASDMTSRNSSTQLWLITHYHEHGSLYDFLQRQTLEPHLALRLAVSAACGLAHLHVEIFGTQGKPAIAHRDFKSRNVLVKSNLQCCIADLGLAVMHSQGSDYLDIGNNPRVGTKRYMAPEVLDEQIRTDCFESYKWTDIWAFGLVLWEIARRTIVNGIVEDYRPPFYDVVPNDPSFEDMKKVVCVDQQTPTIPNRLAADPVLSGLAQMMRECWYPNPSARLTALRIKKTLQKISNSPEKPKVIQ

According to ChEMBL document CHEMBL2384981, “Synthesis and structure-activity relationships of a novel and selective bone morphogenetic protein receptor (BMP) inhibitor derived from the pyrazolo[1.5-a]pyrimidine scaffold of dorsomorphin: the discovery of ML347 as an ALK2 versus ALK3 selective MLPCN probe” (Bioorg Med Chem Lett, 2013):

What was measured:
[1] = biological target: 5'-AMP-activated protein kinase catalytic subunit alpha-1 (Homo sapiens, UniProt Q13131); assay: Inhibition of AMPK (unknown origin)
In short: (§1)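 Radiometric in vitro kinase assay on human kinases with 10 μM (33P)γATP.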

[2] = biological target: Bone morphogenetic protein receptor type-1A (Homo sapiens, UniProt P36894); assay: Inhibition of ALK3 (unknown origin); in short: as §1
[3] = biological target: Activin receptor type-1-like (Homo sapiens, UniProt P37023); assay: Inhibition of ALK1 (unknown origin); in short: as §1

Row | IC50 [1] [nM] | IC50 [2] [nM] | IC50 [3] [nM] | Structure (SMILES)
1 | 2680 |  |  | c1ccc2c(-c3cnn4cc(-c5ccc(N6CCOCC6)cc5)cnc34)ccnc2c1
2 |  | 55 | 55 | c1cc(N2CCNCC2)ccc1-c1cnc2c(-c3cn[nH]c3)cnn2c1
